Assay results reported in paper PMC4481117 (Molecular Pain, 2015).

Biological target: T1, Mac-1 (Mac-1-expressing HEK293 cells) (Homo sapiens, UniProt P05107+P11215)
T1 construct: expressed in transfected cells
Experiment: Adhesion of Mac-1-HEK293 cells to immobilized peptide
Format: cell-based
Protocol: Fig. 3 Adhesion of Mac-1-expressing cells to Dyn A and Dyn B. a, Mac-1-expressing and wild-type HEK293 cells were labeled with calcein and 5x10^4 cells were added to the wells coated with different concentrations of the Dyn A. After 30 min at 37 °C, nonadherent cells were removed and fluorescence was measured. The data shown are means of triplicate determinations, and error bars represent S.E. The figure is representative of 8 experiments. b , adhesion of HEK293 cells expressing Mac-1, LFA and the I-less form of Mac-1 to Dyn A and Dyn B immobilized at 10 μM was determined as described in A. c, calcein-labeled Mac-1-HEK293 cells were preincubated without or with 10 μg/ml of anti-αM mAb 44a or 1 μg/ml NIF for 15 minutes. For testing the role of glucosaminoglycans in cell adhesion, dynorphin A-coated wells were preincubated with 100 μl of 10 μg/ml of chondroitin sulfate A, chondroitin sulfate B and heparin. […]
Adhesion assays were performed essentially as described previously. […] Fluorescence was measured in a CytoFluorII fluorescence plate reader (Perceptive Biosystems, Framingham, MA). […] After aspirating the solution, labeled cells were added and cell adhesion was analyzed as above.

CC(C)C[C@H](NC(=O)[C@H](Cc1ccccc1)NC(=O)CNC(=O)CNC(=O)[C@@H](N)Cc1ccc(O)cc1)C(=O)N[C@@H](CCCN=C(N)N)C(=O)N[C@@H](CCCN=C(N)N)C(=O)N[C@@H](CCC(N)=O)C(=O)N[C@@H](Cc1ccccc1)C(=O)N[C@@H](CCCCN)C(=O)N[C@H](C(=O)N[C@H](C(=O)N[C@H](C(=O)O)[C@@H](C)O)C(C)C)C(C)C [Dyn B]
EC50: ~7.5 µM
